Key:
[1] = tested on: Mus musculus; assay: In vivo antitumor activity against P-388 leukemia in CDF1 mice at 16 mg or 42 umol by ip administration expressed as average wt. change determined between day 0 and day 6 of experiment
[2] = tested on: Mus musculus; assay: In vivo antitumor activity against P-388 leukemia in CDF1 mice at 128 mg or 332 umol by ip administration expressed as average wt. change determined between day 0 and day 6 of experiment
[3] = tested on: Mus musculus; assay: In vivo antitumor activity against P-388 leukemia in CDF1 mice at 16 mg or 42 umol by ip administration expressed as median survival time of drug treated mice/median survival time of control mice x100
[4] = tested on: Mus musculus; assay: In vivo antitumor activity against P-388 leukemia in CDF1 mice at 256 mg or 664 umol by ip administration expressed as median survival time of drug treated mice/median survival time of control mice x100
[5] = tested on: Mus musculus; assay: In vivo antitumor activity against P-388 leukemia in CDF1 mice at 256 mg or 664 umol by ip administration expressed as average wt. change determined between day 0 and day 6 of experiment
[6] = tested on: Mus musculus; assay: In vivo antitumor activity against P-388 leukemia in CDF1 mice at 64 mg or 166 umol by ip administration expressed as median survival time of drug treated mice/median survival time of control mice x100
[7] = tested on: Mus musculus; assay: In vivo antitumor activity against P-388 leukemia in CDF1 mice at 128 mg or 332 umol by ip administration expressed as median survival time of drug treated mice/median survival time of control mice x100
[8] = tested on: Mus musculus; assay: In vivo antitumor activity against P-388 leukemia in CDF1 mice at 64 mg or 166 umol by ip administration expressed as average wt. change determined between day 0 and day 6 of experiment
[9] = tested on: Mus musculus; assay: In vivo antitumor activity against P-388 leukemia in CDF1 mice at 8 mg or 21 umol by ip administration expressed as median survival time of drug treated mice/median survival time of control mice x100
[10] = tested on: Mus musculus; assay: In vivo antitumor activity against P-388 leukemia in CDF1 mice at 32 mg or 83 umol by ip administration expressed as median survival time of drug treated mice/median survival time of control mice x100
[11] = tested on: Mus musculus; assay: In vivo antitumor activity against P-388 leukemia in CDF1 mice at 32 mg or 83 umol by ip administration expressed as average wt. change determined between day 0 and day 6 of experiment
[12] = tested on: Mus musculus; assay: In vivo antitumor activity against P-388 leukemia in CDF1 mice at 8 mg or 21 umol by ip administration expressed as average wt. change determined between day 0 and day 6 of experiment

## CC1(C)CN1P(=O)(NC(=O)NCCn1ccnc1[N+](=O)[O-])N1CC1(C)C (configuration not stated)
[1]
  Average weight change: -0.2 g
[2]
  Average weight change: -0.3 g
[3]
  T/C: 111%
[4]
  T/C: 122%
[5]
  Average weight change: -0.4 g
[6]
  T/C: 111%
[7]
  T/C: 122%
[8]
  Average weight change: 0.3 g
[9]
  T/C: 111%
[10]
  T/C: 100%
[11]
  Average weight change: 1.3 g
[12]
  Average weight change: 0.2 g

— ChEMBL document CHEMBL1125669, “Synthesis of potential dual-acting radiation sensitizer antineoplastic agents: 2,2-dimethylphosphoraziridines containing 2-nitroimidazoles or other electron-affinic moieties” (1991)
